# Test results: patent publication US11555012B2 (Nimbus Artemis, Inc., priority 2018, dated 2023)
# Sequences of proteins named here, by UniProt entry; tags and fusion partners are left off. A line that says so, or that is headed by a name, gives the form on record, which may keep a tag or linker.
# UniProt P53396, other isoform, or with tags, fused parts or gaps isoform P53396-2: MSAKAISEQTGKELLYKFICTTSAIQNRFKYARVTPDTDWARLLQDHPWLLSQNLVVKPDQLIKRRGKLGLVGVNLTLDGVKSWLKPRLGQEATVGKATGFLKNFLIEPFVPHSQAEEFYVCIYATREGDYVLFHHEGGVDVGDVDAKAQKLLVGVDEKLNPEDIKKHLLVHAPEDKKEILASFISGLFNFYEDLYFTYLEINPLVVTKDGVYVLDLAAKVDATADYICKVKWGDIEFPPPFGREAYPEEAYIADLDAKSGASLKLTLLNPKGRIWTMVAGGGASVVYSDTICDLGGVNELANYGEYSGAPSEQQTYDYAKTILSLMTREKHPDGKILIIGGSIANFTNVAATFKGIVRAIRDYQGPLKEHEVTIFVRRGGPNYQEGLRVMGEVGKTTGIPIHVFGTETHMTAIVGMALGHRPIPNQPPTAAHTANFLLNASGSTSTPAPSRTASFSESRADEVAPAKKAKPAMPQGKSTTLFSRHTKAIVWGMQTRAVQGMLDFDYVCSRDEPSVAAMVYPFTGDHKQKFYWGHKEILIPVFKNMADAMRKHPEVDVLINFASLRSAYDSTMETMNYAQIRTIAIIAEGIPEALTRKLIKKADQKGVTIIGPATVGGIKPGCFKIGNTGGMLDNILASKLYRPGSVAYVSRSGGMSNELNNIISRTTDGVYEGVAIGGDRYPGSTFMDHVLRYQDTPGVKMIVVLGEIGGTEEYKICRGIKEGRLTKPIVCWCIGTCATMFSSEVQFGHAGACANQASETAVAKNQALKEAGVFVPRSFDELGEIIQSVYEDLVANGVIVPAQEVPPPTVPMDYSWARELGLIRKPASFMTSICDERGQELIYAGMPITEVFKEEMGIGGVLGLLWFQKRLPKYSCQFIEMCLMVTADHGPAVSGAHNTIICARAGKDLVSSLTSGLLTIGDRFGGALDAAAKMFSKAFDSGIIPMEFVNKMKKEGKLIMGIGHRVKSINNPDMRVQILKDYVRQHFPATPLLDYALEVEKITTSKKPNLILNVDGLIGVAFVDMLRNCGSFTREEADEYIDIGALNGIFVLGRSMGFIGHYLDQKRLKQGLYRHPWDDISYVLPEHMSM
# UniProt P53396, whole entry, species assumed: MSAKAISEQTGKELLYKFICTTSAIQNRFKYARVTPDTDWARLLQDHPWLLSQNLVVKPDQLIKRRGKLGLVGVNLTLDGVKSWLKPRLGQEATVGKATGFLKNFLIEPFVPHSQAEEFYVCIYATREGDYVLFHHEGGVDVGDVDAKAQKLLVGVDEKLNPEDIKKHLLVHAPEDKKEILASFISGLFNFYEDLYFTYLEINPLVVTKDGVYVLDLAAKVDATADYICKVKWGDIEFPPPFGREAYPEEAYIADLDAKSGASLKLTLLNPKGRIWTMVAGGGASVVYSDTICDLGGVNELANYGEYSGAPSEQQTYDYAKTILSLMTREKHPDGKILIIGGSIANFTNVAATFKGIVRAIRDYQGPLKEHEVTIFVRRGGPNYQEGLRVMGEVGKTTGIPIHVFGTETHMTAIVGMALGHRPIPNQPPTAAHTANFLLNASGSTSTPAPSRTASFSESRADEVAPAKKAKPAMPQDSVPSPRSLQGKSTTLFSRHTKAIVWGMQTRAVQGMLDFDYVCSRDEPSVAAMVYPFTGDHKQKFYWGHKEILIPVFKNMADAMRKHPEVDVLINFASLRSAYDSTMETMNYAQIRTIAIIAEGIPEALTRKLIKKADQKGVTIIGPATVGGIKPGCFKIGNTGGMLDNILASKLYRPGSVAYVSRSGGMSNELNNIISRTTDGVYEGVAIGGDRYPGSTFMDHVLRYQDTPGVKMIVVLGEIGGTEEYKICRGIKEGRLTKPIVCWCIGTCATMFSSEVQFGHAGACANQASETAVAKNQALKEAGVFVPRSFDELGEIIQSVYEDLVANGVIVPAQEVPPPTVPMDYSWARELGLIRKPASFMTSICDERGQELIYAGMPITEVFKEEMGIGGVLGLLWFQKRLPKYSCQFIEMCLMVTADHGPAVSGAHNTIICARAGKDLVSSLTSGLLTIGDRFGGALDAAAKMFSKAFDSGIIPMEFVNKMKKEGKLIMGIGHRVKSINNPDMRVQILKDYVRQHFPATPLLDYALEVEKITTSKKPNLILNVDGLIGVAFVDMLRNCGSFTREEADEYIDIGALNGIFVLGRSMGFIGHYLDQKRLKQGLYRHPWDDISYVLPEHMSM
# Legend:
# ACL [1] = molecular target: T1, ACL (Homo sapiens (Human), UniProt P53396); assay: ADP-Glo Assay; conditions: read-out: ACL-ADP-Glo (IC50)
# ACL [2] = molecular target: T1, ACL; assay: ACLY-MDH Coupled Assay; conditions: read-out: ACL-MDH Coupled Assay (IC50); 8 nM ACL, 60 μM CoA Na2, 85 μM Citrate, 250 μM ATP, 250 μM NADH
structure (smiles),measurement,setting,value
"CN(C)C(=O)c1cc(Cl)c(O)c(S(=O)(=O)Nc2cc(-c3ccccc3)c(F)cc2F)c1 [I-83, 3-chloro-5-[(2,4-difluoro-5-phenylphenyl)sulfamoyl]-4-hydroxy-N,N-dimethylbenzamide]",IC50,ACL [1],< 0.05 µM
same,IC50,ACL [2],< 0.05 µM
